## Measured affinities in a library of Ab-14 heavy chain variants

The measurements come from Engelhart et al. 2022 (doi:10.1038/s41597-022-01779-4) through the FLAb antibody collection.

The target is the same throughout: PDVDLGDISGINAS, from the HR2 region of SARS-CoV-2 spike.

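The parent was found by panning a naive human phage display library on the peptide. Variants in AAYL49 differ from the parent at up to three CDR positions; double and triple changes were sampled at random. AlphaSeq pools MATa yeast showing the antibodies with MATalpha yeast showing the peptide. Pairs that bind mate more often; barcode pairs of the diploids are counted by sequencing. The ratio of observed to expected reads was calibrated, replicate by replicate, on BCL2-family standards whose Kd was known from biolayer interferometry. Each pool was mated in three replicate cultures.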

Parent scFv Ab-14: VH joined to VL by a 15-residue (Gly4Ser)3 linker. Changes lie in the heavy chain CDRs alone.
VH: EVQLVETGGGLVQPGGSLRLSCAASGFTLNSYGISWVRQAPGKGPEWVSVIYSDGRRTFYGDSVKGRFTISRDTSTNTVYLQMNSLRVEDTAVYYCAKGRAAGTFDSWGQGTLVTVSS
VL: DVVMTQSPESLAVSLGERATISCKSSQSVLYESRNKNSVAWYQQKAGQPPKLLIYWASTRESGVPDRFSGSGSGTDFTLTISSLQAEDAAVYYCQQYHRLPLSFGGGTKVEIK

Substitutions are numbered in sequence along the VH above, starting at 1 (not Kabat).
All variants listed here change G26 of the VH, counted from its first residue.
Kd is apparent (estimated from mating counts) and averaged on the log scale over replicates with a signal. Smaller is tighter.
"nd" means that the variant was in the library but no mating with the target was seen in any replicate; the authors take this as a sign of poor binding, and no number exists.

| changes | Kd | replicates with signal |
|---|---|---|
| G26W L29P S35E | 7.0 µM | 1 of 3 |
| G26E L29M | 21 nM | 3 of 3 |
| G26C S35R V50W | 14 µM | 3 of 3 |
| G26M I34V V50H | nd | 0 of 3 |
| G26D R56E R100K | 60 nM | 3 of 3 |
| G26Y Y32A A101R | 69 µM | 1 of 3 |
| G26P R57S | 3.1 µM | 1 of 3 |
| G26P D62H G99I | nd | 0 of 3 |
| G26K G99D | 640 µM | 1 of 3 |
| G26S R57D T58H | nd | 0 of 3 |
| G26T G61S A101Q | 3.5 nM | 3 of 3 |
| G26P D54C R56W | nd | 0 of 3 |
| G26R G55L | nd | 0 of 3 |
| G26I S35N V64D | nd | 0 of 3 |
| G26R G33N V50M | 3.8 µM | 1 of 3 |
| G26I S107G | nd | 0 of 3 |
| G26E F27Y Y32G | nd | 0 of 3 |
| G26F D54L A101E | nd | 0 of 3 |
| G26C Y32H Y52R | nd | 0 of 3 |
| G26Q I51L R57D | 6.3 µM | 2 of 3 |
| G26L G55A T104Q | 47 µM | 2 of 3 |
| G26N G55N | 26 µM | 2 of 3 |
| G26K I34V T104S | nd | 0 of 3 |
| G26Q T58R A102E | nd | 0 of 3 |
| G26I A101E | 95 nM | 3 of 3 |
| G26F V50D A102F | nd | 0 of 3 |
| G26V V64D F105C | 2.4 µM | 1 of 3 |
| G26Y I34T V64S | 170 µM | 3 of 3 |
| G26A S31G | 47 µM | 1 of 3 |
| G26K G33Q F59C | 1.5 µM | 1 of 3 |
| G26N S53M R56Q | nd | 0 of 3 |
| G26W K65R G99S | nd | 0 of 3 |
| G26C T58V F105M | 4.0 µM | 1 of 3 |
| G26R L29E G61R | nd | 0 of 3 |
| G26Y G33R F105Q | 78 µM | 1 of 3 |
| G26D S53T D54T | nd | 0 of 3 |
| G26M T28E G103V | 410 nM | 3 of 3 |
| G26P T28A S53K | nd | 0 of 3 |
| G26P S31M G61H | 34 nM | 3 of 3 |
| G26D R56C D106E | 4.7 µM | 2 of 3 |
| G26H R56A R57I | 8.4 µM | 2 of 3 |
| G26Y G61S G103C | 180 µM | 1 of 3 |
| G26I V64R | nd | 0 of 3 |
| G26S G55T G61T | nd | 0 of 3 |
| G26L G61N S107I | 7.5 µM | 2 of 3 |
| G26P A101V A102L | 2.0 µM | 3 of 3 |
| G26E F27I D106W | nd | 0 of 3 |
| G26N V64H K65H | nd | 0 of 3 |
| G26E Y60A V64M | 10 µM | 2 of 3 |
| G26Q G33T G55K | 120 µM | 2 of 3 |
| G26P V64C G99Y | nd | 0 of 3 |
| G26K S31V G99S | 100 µM | 2 of 3 |
| G26T S35T V50S | 52 µM | 3 of 3 |
| G26V N30Y K65M | nd | 0 of 3 |
| G26T S35T T58F | nd | 0 of 3 |
| G26V F59H S63T | nd | 0 of 3 |
| G26L I51R | nd | 0 of 3 |
| G26A I34Q R56K | nd | 0 of 3 |
| G26L F27C R100E | 6.6 µM | 2 of 3 |
| G26T Y60V A101S | nd | 0 of 3 |
| G26W D54K F59S | nd | 0 of 3 |
| G26A I34M T58C | nd | 0 of 3 |
| G26F Y52I | 12 µM | 1 of 3 |
| G26T I51C V64K | 14 µM | 2 of 3 |
| G26Y D54L G99A | nd | 0 of 3 |
| G26P D54S G99L | nd | 0 of 3 |
| G26C L29T G61M | 18 µM | 2 of 3 |
| G26C L29A I34V | 150 µM | 1 of 3 |
| G26N N30Q | 89 nM | 3 of 3 |
| G26L A102K | 220 nM | 3 of 3 |
| G26L A102T S107T | 3.3 µM | 3 of 3 |

11 of these entries, quoted again:

| changes | Kd | replicates with signal |
|---|---|---|
| G26M T28E G103V | 410 nM | 3 of 3 |
| G26H R56A R57I | 8.4 µM | 2 of 3 |
| G26I S107G | nd | 0 of 3 |
| G26Y I34T V64S | 170 µM | 3 of 3 |
| G26I S35N V64D | nd | 0 of 3 |
| G26A I34Q R56K | nd | 0 of 3 |
| G26R L29E G61R | nd | 0 of 3 |
| G26D S53T D54T | nd | 0 of 3 |
| G26V V64D F105C | 2.4 µM | 1 of 3 |
| G26N G55N | 26 µM | 2 of 3 |
| G26Y Y32A A101R | 69 µM | 1 of 3 |

Empty control strains, which show no peptide, gave a signal in 15% of pairings with library AAYL49; the median was 11 µM and 95% of these signals were weaker than 680 nM. No background was subtracted.